Results taken from ChEMBL document CHEMBL5365409, “Novel series of tunable µOR modulators with enhanced brain penetration for the treatment of opioid use disorder, pain and neuropsychiatric indications” (Bioorg Med Chem Lett, 2023).

Chains of the proteins cited; added tags and fusions are not shown.
UniProt P35372, whole entry: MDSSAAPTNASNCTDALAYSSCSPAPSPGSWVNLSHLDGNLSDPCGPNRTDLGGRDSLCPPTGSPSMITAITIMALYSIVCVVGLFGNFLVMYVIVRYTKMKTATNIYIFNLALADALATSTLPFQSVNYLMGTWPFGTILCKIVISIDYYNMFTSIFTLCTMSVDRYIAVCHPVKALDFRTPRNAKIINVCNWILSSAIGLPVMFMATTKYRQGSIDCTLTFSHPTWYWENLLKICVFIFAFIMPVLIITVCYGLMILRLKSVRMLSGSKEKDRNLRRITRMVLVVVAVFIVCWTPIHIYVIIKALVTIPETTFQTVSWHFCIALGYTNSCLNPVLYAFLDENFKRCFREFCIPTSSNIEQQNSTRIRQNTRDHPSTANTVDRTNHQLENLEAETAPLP

Target: Mu-type opioid receptor (Homo sapiens, UniProt P35372)
Assay: Agonist activity at human mu opioid receptor stably transfected in CHO cells assessed as maximal response by cAMP assay relative to DAMGO
Assay type: functional, cell-based

Row | Compound | Emax | Emax (filed as agonist)
1 | CN(C)[C@@H](CNC(=O)N[C@@H](c1ccccc1)C1CC1)Cc1ccc(O)cc1 | 17% | –
2 | C[C@@H](OC(=O)NC[C@H](Cc1ccc(O)cc1)N(C)C)c1ccccc1 | 33% | –
3 | CN(C)[C@@H](CNC(=O)N[C@H](c1ccccc1)C1CC1)Cc1ccc(O)cc1 | – | 48%
4 | CN(C)[C@H](CNC(=O)N[C@H](c1ccccc1)C1CC1)Cc1ccc(O)cc1 | – | 47%
5 | CN(C)[C@H](CNC(=O)N[C@@H](c1ccccc1)C1CC1)Cc1ccc(O)cc1 | 22% | –
6 | C[C@H](OC(=O)NC[C@H](Cc1ccc(O)cc1)N(C)C)c1ccccc1 | – | 43%
7 | C[C@@H](OC(=O)NC[C@@H](Cc1ccc(O)cc1)N(C)C)c1ccccc1 | 28% | –
